The target in one experiment is HDAC-1 (Homo sapiens, UniProt Q13547). The experiment is described as follows: HDAC Inhibition Assay (purified GST-HDAC protein). Type of experiment: biochemical. Particulars: read-out: HDAC-1 IC50.
The next experiment has as its system HCT116. The experiment is described as follows: HCT116 IC50. Type of experiment: cell-based. The settings on record: read-out: HCT116 IC50.

Sequences of proteins named here, by UniProt entry; tags and fusion partners are left off.
UniProt Q13547, whole entry: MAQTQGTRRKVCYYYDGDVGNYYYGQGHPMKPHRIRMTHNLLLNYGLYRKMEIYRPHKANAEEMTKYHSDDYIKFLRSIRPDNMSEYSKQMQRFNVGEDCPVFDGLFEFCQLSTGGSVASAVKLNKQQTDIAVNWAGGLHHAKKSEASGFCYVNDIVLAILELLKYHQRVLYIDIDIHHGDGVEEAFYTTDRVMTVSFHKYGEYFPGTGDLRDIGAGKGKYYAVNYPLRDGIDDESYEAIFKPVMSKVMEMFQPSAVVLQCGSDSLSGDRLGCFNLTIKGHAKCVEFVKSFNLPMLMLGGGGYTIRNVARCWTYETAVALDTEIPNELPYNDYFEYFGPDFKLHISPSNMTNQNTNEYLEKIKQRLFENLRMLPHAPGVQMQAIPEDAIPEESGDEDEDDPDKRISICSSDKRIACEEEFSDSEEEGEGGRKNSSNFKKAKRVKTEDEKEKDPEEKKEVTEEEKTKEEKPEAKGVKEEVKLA

As a reminder, the IC50 is the midpoint of a concentration-inhibition curve. Consider `O=C(/C=C/c1ccc(CN2CCCC(c3c[nH]c4ccccc34)C2)c(F)c1)NO` (centres unmarked), for which the IC50 on HDAC-1 turned out to be 140 nM; in the experiment with HCT116 it was 330 nM.

These data come from patent US20110053925A1, “Hydroxamate-Based Inhibitors of Deacetylases” (Novartis AG, priority 2009, published 2011).
